In assay [1] the target is T1, rat nNOS (Rattus norvegicus, UniProt P29476).
T1 construct: made in house; host or cells: E. coli
As to the kind of experiment: NOS enzyme assay (hemoglobin capture), nNOS. In kind it is biochemical.

Assay [2] concerns the target T2, nNOS in 293T cells overexpressing nNOS (293T/nNOS cells) (Rattus norvegicus, UniProt P29476).
T2 construct: expressed in transfected cells; host or cells: 293T cells (293T/nNOS)
As to the kind of experiment: Cell-based assay: inhibition of nNOS in 293T/nNOS cells, nitrite by Griess reagent. The following applies: A23187 (5 μM), eight hours, nitrite in culture media. On the procedure:
FIG. 4. Inhibition of nNOS in 293T cells overexpressing nNOS (293T/nNOS cells). 293T/nNOS cells were treated with A23187 (5 μM) and various concentrations of inhibitors 2 and 3g-3k. After eight hours, the amount of nitrite in culture media was quantified with the Griess reagent. Each data point is an average of two independent experiments.
(Griess reagent forms a coloured azo dye with nitrite.)

Broadly, the IC50 is the concentration at which inhibition is half-maximal. A high value points to lower potency. A word on the Ki: it is the equilibrium dissociation constant of an inhibitor or competing ligand from its target.

On to `Cc1cc(N)nc(CCc2cccc(CCc3cc(C)cc(N)n3)c2)c1` [3g, 6,6′-(2,2′-(1,3-Phenylene)bis(ethane-2,1-diyl))bis(4-methylpyridin-2-amine)], for which the “activity/potency for nNOS in words” value in assay [1] (purified enzyme assay) is “highly potent”. Further, in assay [1] (ratio of Ki (eNOS) to Ki (nNOS), Tables 1-3), the n/e is given as 28.8. Besides, the n/i in assay [1] (ratio of Ki (iNOS) to Ki (nNOS), Tables 1-3) is 13.9.

On to `Cc1cc(N)nc(CCc2cncc(CCc3cc(C)cc(N)n3)c2)c1` [3j, 6,6′-(2,2′-(Pyridine-3,5-diyl)bis(ethane-2,1-diyl))bis(4-methylpyridin-2-amine)], for which, in assay [2], the IC50 turned out to be 5000 nM. Moreover, in assay [1] (rat nNOS, Ki calculated from directly measured IC50 values), the Ki is 28 nM.

Source of the values: patent US8932842B2, “Aminopyridine dimer compounds, compositions and related methods for neuronal nitric oxide synthase inhibition” (Northwestern University, priority 2009, dated 2015).
